Measured values reported in patent publication US20130079349A1 (JANSSEN PHARMACEUTICA NV, priority 2010, published 2013).

Amino acid sequences for entries named in this document (tags omitted). Residues count along the entry.
UniProt P56817, 46-501 limits assumed: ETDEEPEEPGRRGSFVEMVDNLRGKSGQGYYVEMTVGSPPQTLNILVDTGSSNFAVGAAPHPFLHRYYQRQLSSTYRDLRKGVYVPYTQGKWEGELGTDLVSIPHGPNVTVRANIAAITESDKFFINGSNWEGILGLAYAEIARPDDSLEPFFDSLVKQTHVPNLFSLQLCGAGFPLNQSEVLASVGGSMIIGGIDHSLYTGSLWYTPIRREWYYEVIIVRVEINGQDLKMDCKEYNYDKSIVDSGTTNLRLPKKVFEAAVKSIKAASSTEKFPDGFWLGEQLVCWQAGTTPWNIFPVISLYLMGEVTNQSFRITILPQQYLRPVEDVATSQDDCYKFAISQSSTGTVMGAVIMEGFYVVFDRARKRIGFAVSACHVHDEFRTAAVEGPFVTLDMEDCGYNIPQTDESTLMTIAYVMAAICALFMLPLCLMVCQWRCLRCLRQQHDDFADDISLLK

Tests used:
Abeta total = test: Cellular αLisa assay in SKNBE2 cells, Abeta total; details: human neuroblastoma SKNBE2 expressing hAPP695, incubated for 18 hours
BACE1 = BACE1 (Homo sapiens, UniProt P56817); test: Biochemical FRET based assay; details: recombinant BACE1 1 μg/ml, 120 minutes at room temperature, pH 5.0
Abeta 1-42 = test: Cellular αLisa assay in SKNBE2 cells, Abeta 1-42; details: human neuroblastoma SKNBE2 expressing hAPP695, incubated for 18 hours

| SMILES | Cellular αlisa assay in SKNBE2 cells Aβtotal pIC50 (Abeta total) | Biochemical FRET based assay pIC50 (BACE1) | Cellular αlisa assay in SKNBE2 cells Aβ42 pIC50 (Abeta 1-42) |
| --- | --- | --- | --- |
| CN1CC(N)=NC(C)(c2cccc(NC(=O)c3ccc(C(F)(F)F)cn3)c2)C1=O (stereo not drawn) | 7.10 | 5.86 | 7.17 |
| CN1CC(N)=NC(C)(c2cccc(NC(=O)c3ccc(C#N)cn3)c2)C1=O (stereo not drawn) | 6.82 | 6.09 | 6.73 |
